# Assay outcomes deposited in PubChem BioAssay by National Center for Advancing Translational Sciences (NCATS).
# Most compounds without a hit are left out; they make up all but 16% or so of the library.
# uPA surface inh: inhibitors of cell surface uPA generation; Potency, µM (top dose mostly 38.3 µM), without a hit: at the highest dose activity change, negative = inhibition, actives largely listed as inhibitors; cell surface uPA generation assay, qHTS; 330,000 tested, 0.31% active; active = well fitted inhibition curve with a large enough effect; inconclusive = small, poorly fitted or top-dose-only effect; inactive = no such curve, though single readings can be large or run the other way; tested in mouse RAW 264.7 cells; note: potency is the fitted concentration of half-maximal effect; % is set by controls: 0 for no effect and ±100 for the full control effect; nearly all actives have a fitted effect of over 55% in size
# miR-21 reporter: raises the signal of a miR-21 reporter | HeLa miR-21 FLuc reporter, luciferase, 48 h | Potency, µM (doses to about 38.3 µM), for the others: at the highest dose reporter change, positive = more light | 340,000 tested, under 10 active | AID 2288; active = well fitted rising curve with a large enough effect; inconclusive = small, poorly fitted or top-dose-only effect; inactive = no such curve, though single readings can be large or run the other way;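 also: % of control where 0% means no effect; miR-21 action dims this reporter so a rising signal means less miR-21 action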
#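 HeLa cells endogenously expressing miR-21, stably carrying CMV-driven firefly luciferase with a downstream miR-21 binding site, 2000 cells/well. Titrations up to approximately 40 uM, 48 hours; luciferase luminescence read.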
# TDP1 block: blocks human tyrosyl-DNA phosphodiesterase 1. recombinant TDP1, AlphaScreen DNA substrate cleavage. Potency, µM (series often up to 130 µM), without a hit: at the highest dose activity change, negative = inhibition, usual class: inhibitors. 350,000 tested, 0.28% active; note: potency is the fitted concentration of half-maximal effect; % is set by controls: 0 for no effect and ±100 for the full control effect; nearly all actives have a fitted effect of over 40% in size
#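 AlphaScreen read-out: signal falls as enzyme removes the 3' tyrosine-FITC from a 5'-biotinylated DNA oligo (15 nM, 5 min, RT). Enzyme was E. coli-made recombinant Tdp1 at 1 nM, exposed to compound for 15 min beforehand; beads 10 ug/ml, 10 min.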
# DT40 TDP1 CPT: DT40-hTDP1 cell growth loss with CPT. Potency, µM (series often up to 46.2 µM), for the others: at the highest dose activity change, negative = growth inhibition, hits mostly inhibitors. 420,000 tested, 12% active. chicken DT40 Tdp1-/-;hTDP1 cells + 20 nM CPT, ATP luminescence, 48 h; note: potency is the fitted concentration of half-maximal effect; % is set by controls: 0 for no effect and ±100 for the full control effect; nearly all actives have a fitted effect of over 55% in size
#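 Cell growth measured by CellTiter-Glo luminescence after a minimum 48 h, 37 C compound exposure with 20 nM CPT in Tdp1-knockout DT40 cells stably expressing hTDP1, seeded 400/well; qHTS titration format.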
# TDP1 cell noCPT: qHTS for Inhibitors of human tyrosyl-DNA phosphodiesterase 1 (TDP1): qHTS in cells in absence of CPT; Potency, µM (highest dose often 46.2 µM), without a hit: at the top dose activity change, negative = growth inhibition, most hits filed as inhibitors; DT40 Tdp1-/- hTDP1 cells, no CPT, ATP luminescence, 48 h; AID 686978, 2013; 420,000 tested, 15% active; note: potency is the fitted concentration of half-maximal effect; % is set by controls: 0 for no effect and ±100 for the full control effect; nearly all actives have a fitted effect of over 55% in size
#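 Chicken DT40 Tdp1-/- cells complemented with human TDP1, screened without camptothecin (DMSO vehicle only), 400 cells/well. Compounds pin-transferred, cells incubated at 37 °C for at least 48 hr. Growth read as ATP-dependent luminescence (CellTiter-Glo, 30 min at RT).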
# * marks the source's active call; other numbers are inactive results; ? = inconclusive; · = no result given; ! = repeats disagree; [ ] = remark or other dose. Unless noted, calls come from the whole dose curve; as a rule, active = well fitted curve in the direction sought with a large enough effect; inconclusive = small, poorly fitted or top-dose-only effect, or another doubt; inactive = no such curve, though single readings can be large; an effect the other way counts as inactive or inconclusive.
# Under each structure: uPA surface inh | miR-21 reporter | TDP1 block | DT40 TDP1 CPT | TDP1 cell noCPT
CCOc1ccccc1N1CCN(C(=O)c2cccc(-c3ccc(O)cc3)c2)CC1
→ -2% | 12% | -13% | 16µM* | ?
COc1cc2ccccc2cc1C(=O)N1CCN(C(C)=O)CC1
→ -4% | 0% | 1% | 16% | 0%
COc1cc2ccccc2cc1C(=O)N1CCN(c2nc3ccc(F)cc3s2)CC1
→ · | 4% | 8% | 16µM* | 15µM*
CCOc1ccccc1N1CCN(C(=O)c2cc3ccccc3cc2OC)CC1
→ 3.5µM* | · | 7% | 3.7µM* | 4.6µM*
O=C(CN(C(=O)CNS(=O)(=O)c1ccc(F)cc1)c1ccc(F)cc1)NCc1ccco1
→ 0% | 0% | · | -2% | -22%
CCCN1C(=O)/C(=C/C=C2\N(CC)c3ccccc3C2(C)C)SC1=S
→ 2% | 3% | 8% | ? | 13µM*
CN1/C(=C\C=C2/SC(=S)N(CC(=O)O)C2=O)C(C)(C)c2ccccc21
→ 0% | 2% | 5% | -30% | ?
CCOc1ccccc1NC(=O)Nc1ccc2c(c1)OCO2
→ 1% | -27% | 8% | ? | 2%
C=CCOc1ccccc1CN(C(=O)CCl)c1ccc2c(c1)OCO2
→ -1% | 28% | 3% | 18µM* | 10µM*
Cc1c(C)c(C)c2[nH]c(-c3ccc4c(c3)OCO4)nc2c1C
→ -3% | -4% | · | ? | 18µM*
NC(=O)C1CCN(c2nc(-c3ccccc3N)cs2)CC1
→ -7% | · | 1% | · | ·
ClN=C1C=CC=CC1=NCl
→ · | · | · | 16µM* | ?
COc1cc(/C=C/c2ccc3cccc(O)c3n2)ccc1O
→ 7% | 5% | · | ? | 16µM*
Oc1ccc(Cl)cc1/C=C/c1ccc2cccc(O)c2n1
→ -5% | 0% | 11% | ? | 26µM*
COc1cc(Br)c(/C=C/c2ccc3cccc(O)c3n2)cc1OC
→ 1% | -9% | · | 12µM* | 13µM*
COc1ccc(OC)c(/C=C/c2ccc3cccc(O)c3n2)c1
→ · | -7% | · | · | ·
COc1cc(Br)cc(/C=C/c2ccc3cccc(O)c3n2)c1O
→ 8% | 4% | · | 15µM* | 9.2µM*
CCCN(CCC)Cc1c(C(=O)N/N=C/c2ccsc2)nnn1-c1nonc1N
→ 3% | 1% | 4% | -3% | ?
COc1cc(-c2nc(C)cnc2C)cc2c1OCCN(C(=O)Cn1nc(-c3ccccc3)c3ccccc3c1=O)C2
→ · | · | · | -6%[9.04 µM] | 2%
Oc1cccc2ccc(/C=C/c3ccccc3Br)nc12
→ -4% | 1% | · | 6.5µM* | 5.8µM*
CSc1ccc(/C=C/c2ccc3cccc(O)c3n2)cc1
→ 0% | 1% | 5% | 16µM* | 21µM*
Oc1ccc2ccccc2c1/C=C/c1ccc2c(Br)cc(Br)c(O)c2n1
→ 2% | · | · | 3.7µM* | 5.2µM*
CCCC(=O)Nc1nnc(SCC(=O)Nc2ccc3c(c2)OCO3)s1
→ -3% | 5% | 5% | 3% | ?
CC(C)(C)NC(=O)Cn1nnc(-c2cccs2)n1
→ 1% | -36% | 1% | 8% | 1%
O=S1(=O)CCOC[C@H](c2ccccc2)N1Cc1cccc(F)c1
→ 14% | -4% | · | ? | 13µM*!
O=S1(=O)CCOC[C@H](Cc2ccccc2)N1Cc1cccc(F)c1
→ -6% | · | · | 0% | ?
O=S1(=O)CCOC[C@H](c2ccccc2)N1Cc1ccc(F)cc1
→ · | · | · | ? | 11µM*
OC12CCCCC1C(c1ccc3c(c1)OCO3)N(Cc1ccccc1F)CC2 (configuration not stated)
→ 2% | 16% | 3% | -7% | -4%
CCCCCCc1cc2cc(C(=O)Nc3ccccc3)c(=O)oc2cc1O
→ 3% | -11% | 5% | 3.3µM* | 3.7µM*
Cc1ccc(N(C)S(=O)(=O)c2c(C)noc2/C=C/N(C)C)cc1
→ -14% | 12% | 7% | 18µM* | ?

# One compound at a time (already shown):
# COc1cc(/C=C/c2ccc3cccc(O)c3n2)ccc1O in the list: uPA surface inh = 7%; miR-21 reporter = 5%; TDP1 block = ·; DT40 TDP1 CPT = ?; TDP1 cell noCPT = 16µM*
# Oc1ccc2ccccc2c1/C=C/c1ccc2c(Br)cc(Br)c(O)c2n1 in the list: uPA surface inh = 2%; miR-21 reporter = ·; TDP1 block = ·; DT40 TDP1 CPT = 3.7µM*; TDP1 cell noCPT = 5.2µM*
# COc1cc(Br)cc(/C=C/c2ccc3cccc(O)c3n2)c1O in the list: uPA surface inh = 8%; miR-21 reporter = 4%; TDP1 block = ·; DT40 TDP1 CPT = 15µM*; TDP1 cell noCPT = 9.2µM*

# The list continues.
# Under each structure: uPA surface inh | miR-21 reporter | TDP1 block | DT40 TDP1 CPT | TDP1 cell noCPT
FC(F)(F)c1nc(=S)c2ccccc2[nH]1
→ 3% | 0% | 7% | -17% | -1%
O=C(Nc1ccncc1)C1C(=O)c2ccccc2N(Cc2ccccc2)C1=O (configuration not stated)
→ · | · | 0% | 1µM* | 0.71µM*
O=C(O)C1C2CCC(O2)C1C(=O)Nc1cnn(Cc2ccccc2)c1 (configuration not stated)
→ · | -18% | 3% | -20% | -3%
Cc1cc(C)c2oc(C(=O)Nc3ccc(S(=O)(=O)N4CCC(C)CC4)cc3)cc(=O)c2c1
→ -7% | 1% | 0% | 10µM* | 7.3µM*
Cc1ccc2c(=O)cc(C(=O)Nc3ccc(S(=O)(=O)N(C)c4ccccc4)cc3)oc2c1C
→ · | 0% | 2% | 2% | -6%
Cc1ccc2c(=O)cc(C(=O)Nc3ccc(S(=O)(=O)N4CCCCCC4)cc3)oc2c1C
→ · | -3% | 2% | ? | 15µM*
Cc1cc2oc(C(=O)Nc3ccc(S(=O)(=O)N4CCC(C)CC4)cc3)cc(=O)c2cc1C
→ · | -5% | 9% | -3% | -8%
COc1ccc(CCNC(=O)NCc2noc3ccccc23)c(OC)c1
→ · | -14% | 3% | ? | 21µM*
COc1ccc(Cl)cc1NC(=O)NCc1noc2ccccc12
→ · | -5% | 3% | ? | ?
O=C(NCc1ccccc1Cl)NCc1noc2ccccc12
→ · | -44% | -3% | ? | 9.2µM*
CC(=O)NCC(=O)N(C)C(C(=O)Nc1ccc2c(c1)OCCO2)c1ccc(C)cc1 (configuration not stated)
→ -1% | -30% | 3% | 1% | -14%
O=C([C@H]1O[C@@H](n2ccc(=O)[nH]c2=O)[C@H](O)[C@@H]1O)N1CCSC1
→ · | · | · | 16% | 18%
Cc1ccccc1C(NC(=O)C1CCN(Cc2ccc(Oc3ccccc3)cc2)CC1)c1ccsc1 (configuration not stated)
→ · | · | · | 18µM* | 18µM*
O=C(NNC(=O)C1CCN(Cc2ccccc2)CC1)c1cccs1
→ 1% | -1% | 3% | 9% | 8%
O=C(NC(c1ccc(Cl)cc1)c1ccsc1)C1CCN(Cc2ccc(Oc3ccccc3)cc2)CC1 (configuration not stated)
→ · | · | · | 2.6µM* | 2.6µM*
COc1cc(CN2CCC(C(=O)NC(c3ccccc3)c3ccsc3)CC2)cc(OC)c1 (configuration not stated)
→ · | · | · | 16µM* | 21µM*
CCCN1CCC(C(=O)NC(c2ccc(Cl)cc2)c2ccsc2)CC1 (configuration not stated)
→ · | · | · | ? | 2.9µM*
Cc1ccc(NC(=O)CCNS(=O)(=O)c2cccc3nsnc23)cc1F
→ -5% | -9% | 3% | 3% | -29%
CC(C)(C)OC(=O)N1CSC[C@H]1C(=O)NC[C@H](CC(=O)O)c1ccc(Cl)cc1
→ -26% | 2% | · | 1% | 21%

# Some values from the entries so far:
# Result of `FC(F)(F)c1nc(=S)c2ccccc2[nH]1` in TDP1 block: 7%
# Result of `COc1ccc(Cl)cc1NC(=O)NCc1noc2ccccc12` in miR-21 reporter: -5%
